{"source": "patent US12241090B2", "about": "“Methods and systems for converting precursor cells into gastric tissues through directed differentiation” (CHILDREN'S HOSPITAL MEDICAL CENTER, priority 2014, dated 2025)", "molecules": {"B1": {"name": "BMP2: BMP ligand added at 100 ng mL−1 (protein, UniProt P12643 283-396, looked up)", "Bone morphogenetic protein 2": "QAKHKQRKRLKSSCKRHPLYVDFSDVGWNDWIVAPPGYHAFYCHGECPFPLADHLNSTNHAIVQTLVNSVNSKIPKACCVPTELSAISMLYLDENEKVVLKNYQDMVVEGCGCR"}}, "test_system": "hPSC-derived definitive endoderm (DE) cultures", "assay": "Endoderm patterning of hPSC-derived DE cultures with growth factors/antagonists, qPCR and immunofluorescence", "format": "cell-based, human", "settings": "BMP2 100 ng mL−1", "experimental": "Following DE induction, cells were treated for three days with growth factors/antagonists in RPMI 1640 with 2.0% dFBS. […] CHIR99021 is a small molecule that stimulates the Wnt signaling pathway. RA (2 μM; Sigma Aldrich) is added on the final day. Three-dimensional growth and antral specification. Posterior foregut spheroids were embedded in Matrigel (BD Biosciences) as previously described^10, 12 and subsequently grown in Advanced DMEM/F12 (Invitrogen) supplemented with N2 (Invitrogen), B27 (Invitrogen), L-glutamine, 10 μM HEPES, penicillin/streptomycin, and EGF (100 ng ml^−1; R&D Systems). For antral specification, RA and noggin were added for the first three days of three-dimensional growth. For endocrine cell specification, the EGF concentration is lowered to 10 ng ml^−1 at day 30.\nThe media was changed every day.\nAll tissues were fixed in 4% paraformaldehyde for either one hour at room temperature for frozen processing or overnight at 4° C. for paraffin processing. For frozen sections, tissue was protected in 30% sucrose overnight at 4° C., then embedded in OCT (Tissue-Tek), and cut at 10 μm. For paraffin sections, tissue was processed through a graded ethanol series, followed by xylene, and then embedded in paraffin and cut at 7 μm. Tissue culture cells were fixed for 15 minutes at room temperature and stained directly. […]"}
{"molecule": "B1", "values": [{"measurement": "ability to posteriorize endoderm in place of or with Wnt/FGF", "value": "did not substitute for or augment"}]}
